Where only a bound is given, the exact number is not on record here.

The subject of the data set is sheep red blood cell (erythrocytes). Description: Hemolytic assay (in vitro toxicity). The following applies: percent hemolysis. Here is the method:
Antibacterial activity against Gram-positive and Gram-negative microorganisms was tested via broth macrodilution tests using CLSI methodology (Zhanel et al., 2008). Stock solutions of cationic lipids in water were brought to a concentration of 512 mg/L. Organisms were subcultured and isolated on blood agar, suspended in 3 mL of Mueller-Hinton broth at the turbidity of a […], and diluted to approximately 10^5 cfu/mL before introduction into tubes containing serially diluted lipopeptide antibiotic in Mueller-Hinton broth. Activity testing against S. pneumoniae used broth supplemented with laked horse blood to give 5% horse blood in experimental tubes. Turbidity of lipopeptide solution in broth required creation of control tubes lacking organisms serving as turbidity controls. All tubes were incubated overnight for 16-20 h at 37° C. […] All experiments were performed in duplicate. In-vitro toxicity was determined using a sheep red blood cell hemolytic assay as previously described (Dathe et al., 1996).
In vitro toxicity was determined using a sheep red blood cell (erythrocytes) hemolytic assay (Dathe et al., 1996). […] Erythrocytes were washed and resuspended in Tris buffered saline. […] The samples were centrifuged and the absorbance of the supernatants measured at 540 nm. […] The toxicity was assessed by percent hemolysis.

On to Gentamicin [reference compound], for which the “hemolytic activity at 100 mg/L” value is reported as below 0.6%.
